CycPeptMPDB entries from one study

PAMPA is the parallel artificial membrane permeability assay, which has no cells and reads passive diffusion.
P is given in units of 10^-6 cm/s (from log10 values with two decimals); larger means faster passage.

PAMPA (10^-6 cm/s)	compound
0.85	CC(=O)N1CCC[C@@H]1C(=O)N(C)[C@H](CC(C)C)C(=O)N[C@@H]1C(=O)N[C@@H](CC(C)C)C(=O)N[C@@H](CC(C)C)C(=O)N(C)[C@H](CC(C)C)C(=O)N(C)[C@@H](C)C(=O)N[C@@H](CC(C)C)C(=O)N2CCC[C@H]2C(=O)O[C@@H]1C
9.3	CC(=O)N1CCC[C@H]1C(=O)N(C)[C@@H](CC(C)C)C(=O)N[C@@H]1C(=O)N[C@H](CC(C)C)C(=O)N(C)[C@@H](CC(C)C)C(=O)N[C@H](CC(C)C)C(=O)N(C)[C@H](C)C(=O)N[C@@H](CC(C)C)C(=O)N2CCC[C@@H]2C(=O)O[C@@H]1C
6.5	CC(=O)N1CCC[C@@H]1C(=O)N(C)[C@H](CC(C)C)C(=O)N[C@@H]1C(=O)N[C@H](CC(C)C)C(=O)N(C)[C@@H](CC(C)C)C(=O)N(C)[C@H](CC(C)C)C(=O)N(C)[C@H](C)C(=O)N[C@@H](CC(C)C)C(=O)N2CCC[C@@H]2C(=O)O[C@@H]1C
6.6	CC(=O)N1CCC[C@H]1C(=O)N[C@@H]1C(=O)N[C@H](CC(C)C)C(=O)N(C)[C@H](CC(C)C)C(=O)N[C@@H](CC(C)C)C(=O)N(C)[C@H](CC(C)C)C(=O)N[C@@H](C)C(=O)N[C@@H](CC(C)C)C(=O)N2CCC[C@@H]2C(=O)O[C@@H]1C
4.7	CC(=O)N1CCC[C@H]1C(=O)N(C)[C@H](CC(C)C)C(=O)N[C@@H]1C(=O)N[C@H](CC(C)C)C(=O)N(C)[C@H](CC(C)C)C(=O)N[C@@H](CC(C)C)C(=O)N(C)[C@H](C)C(=O)N[C@H](CC(C)C)C(=O)N2CCC[C@@H]2C(=O)O[C@@H]1C
1.9	CC(=O)N1CCC[C@H]1C(=O)N(C)[C@H](CC(C)C)C(=O)N[C@@H]1C(=O)N[C@@H](CC(C)C)C(=O)N(C)[C@H](CC(C)C)C(=O)N(C)[C@H](CC(C)C)C(=O)N(C)[C@@H](C)C(=O)N[C@H](CC(C)C)C(=O)N2CCC[C@@H]2C(=O)O[C@@H]1C
6.2	CC(=O)N1CCC[C@H]1C(=O)N[C@@H]1C(=O)N[C@H](CC(C)C)C(=O)N(C)[C@H](CC(C)C)C(=O)N(C)[C@@H](CC(C)C)C(=O)N(C)[C@H](CC(C)C)C(=O)N[C@H](C)C(=O)N[C@@H](CC(C)C)C(=O)N2CCC[C@@H]2C(=O)O[C@@H]1C
0.4	CC(=O)N[C@@H]1C(=O)N2CCC[C@H]2C(=O)N(C)[C@H](CC(C)C)C(=O)N[C@@H](CC(C)C)C(=O)N[C@@H](CC(C)C)C(=O)N(C)[C@@H](CC(C)C)C(=O)N(C)[C@H](C)C(=O)N[C@@H](CC(C)C)C(=O)N2CCC[C@@H]2C(=O)O[C@@H]1C
0.18	CC(=O)N1CCC[C@@H]1C(=O)N(C)[C@H](CC(C)C)C(=O)N[C@@H]1C(=O)N(C)[C@H](CC(C)C)C(=O)N[C@H](CC(C)C)C(=O)N[C@H](CC(C)C)C(=O)N[C@H](C)C(=O)N[C@H](CC(C)C)C(=O)N2CCC[C@H]2C(=O)O[C@@H]1C
0.48	CC(=O)N1CCC[C@@H]1C(=O)N(C)[C@@H](CC(C)C)C(=O)N[C@@H]1C(=O)N[C@H](CC(C)C)C(=O)N[C@H](CC(C)C)C(=O)N(C)[C@@H](CC(C)C)C(=O)N(C)[C@H](C)C(=O)N[C@@H](CC(C)C)C(=O)N2CCC[C@@H]2C(=O)O[C@@H]1C
5.5	CC(=O)N1CCC[C@@H]1C(=O)N(C)[C@H](CC(C)C)C(=O)N[C@@H]1C(=O)N(C)[C@@H](CC(C)C)C(=O)N(C)[C@H](CC(C)C)C(=O)N(C)[C@H](CC(C)C)C(=O)N[C@@H](C)C(=O)N[C@H](CC(C)C)C(=O)N2CCC[C@H]2C(=O)O[C@@H]1C
1	CC(=O)N1CCC[C@H]1C(=O)N[C@@H]1C(=O)N[C@H](CC(C)C)C(=O)N[C@@H](CC(C)C)C(=O)N[C@@H](CC(C)C)C(=O)N(C)[C@H](CC(C)C)C(=O)N[C@@H](C)C(=O)N[C@@H](CC(C)C)C(=O)N2CCC[C@@H]2C(=O)O[C@@H]1C
0.079	CC(=O)N1CCC[C@@H]1C(=O)N(C)[C@H](CC(C)C)C(=O)N[C@@H]1C(=O)N[C@H](CC(C)C)C(=O)N[C@@H](CC(C)C)C(=O)N[C@@H](CC(C)C)C(=O)N[C@@H](C)C(=O)N[C@H](CC(C)C)C(=O)N2CCC[C@H]2C(=O)O[C@@H]1C
4.7	CC(=O)N1CCC[C@@H]1C(=O)N(C)[C@H](CC(C)C)C(=O)N[C@@H]1C(=O)N[C@H](CC(C)C)C(=O)N(C)[C@H](CC(C)C)C(=O)N(C)[C@@H](CC(C)C)C(=O)N(C)[C@@H](C)C(=O)N[C@H](CC(C)C)C(=O)N2CCC[C@H]2C(=O)O[C@@H]1C
1.7	CC(=O)N1CCC[C@H]1C(=O)N(C)[C@@H](CC(C)C)C(=O)N[C@@H]1C(=O)N[C@H](CC(C)C)C(=O)N[C@H](CC(C)C)C(=O)N(C)[C@@H](CC(C)C)C(=O)N(C)[C@H](C)C(=O)N[C@H](CC(C)C)C(=O)N2CCC[C@H]2C(=O)O[C@@H]1C
3.7	CC(=O)N1CCC[C@@H]1C(=O)N(C)[C@H](CC(C)C)C(=O)N[C@@H]1C(=O)N(C)[C@H](CC(C)C)C(=O)N(C)[C@@H](CC(C)C)C(=O)N(C)[C@H](CC(C)C)C(=O)N(C)[C@H](C)C(=O)N[C@H](CC(C)C)C(=O)N2CCC[C@H]2C(=O)O[C@@H]1C
4.6	CC(=O)N1CCC[C@H]1C(=O)N(C)[C@@H](CC(C)C)C(=O)N[C@@H]1C(=O)N[C@H](CC(C)C)C(=O)N(C)[C@@H](CC(C)C)C(=O)N(C)[C@H](CC(C)C)C(=O)N(C)[C@@H](C)C(=O)N[C@@H](CC(C)C)C(=O)N2CCC[C@H]2C(=O)O[C@@H]1C

Excerpt, the opening 2 entries:

compound	PAMPA (10^-6 cm/s)
CC(=O)N1CCC[C@@H]1C(=O)N(C)[C@H](CC(C)C)C(=O)N[C@@H]1C(=O)N[C@@H](CC(C)C)C(=O)N[C@@H](CC(C)C)C(=O)N(C)[C@H](CC(C)C)C(=O)N(C)[C@@H](C)C(=O)N[C@@H](CC(C)C)C(=O)N2CCC[C@H]2C(=O)O[C@@H]1C	0.85
CC(=O)N1CCC[C@H]1C(=O)N(C)[C@@H](CC(C)C)C(=O)N[C@@H]1C(=O)N[C@H](CC(C)C)C(=O)N(C)[C@@H](CC(C)C)C(=O)N[C@H](CC(C)C)C(=O)N(C)[C@H](C)C(=O)N[C@@H](CC(C)C)C(=O)N2CCC[C@@H]2C(=O)O[C@@H]1C	9.3

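Conditions beyond the assay type are not listed; see the original paper. The list need not hold all peptides of the study. Entries at the database's floor value (log10 P of -10) are not listed.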

Source: CycPeptMPDB (Li et al. 2023), which took these values from Kelly et al. 2021, doi:10.1021/jacs.0c06115.